From patent publication US20210113687A1, “METHODS FOR TREATING INFLAMMATION” (NEW YORK UNIVERSITY, priority 2013, published 2021) come the findings set out here.

For the experiment, the target named is UNC5b on mouse macrophages (mouse) (UniProt Q8K1S3). Description: cell-based or functional assay.

Regarding “netrin-1 secreted by mouse macrophages (conditioned medium of oxLDL-, CoCl2-, HIF-1alpha- or palmitate-treated macrophages) (from UniProt O09118 25-604) (ligand)”, the inhibition of migration of naive macrophages to CCL19 by conditioned medium of oxLDL-treated macrophages amounted to 80%. Regarding “recombinant netrin-1 (mouse or chicken from R&D Systems) (from UniProt O09118 25-604) (ligand)”, the inhibition of MCP-1 induced migration of RAW264.7 macrophages (Boyden chamber) was greater than 90%.
